Data on one compound can be found in patent publication US10604554B2, “Double-acylated GLP-1 derivatives” (Novo Nordisk A/S, priority 2012, dated 2020).

Sequences of proteins named here, by UniProt entry; tags and fusion partners are left off. Residues count along the entry.
UniProt P43220, 24-463: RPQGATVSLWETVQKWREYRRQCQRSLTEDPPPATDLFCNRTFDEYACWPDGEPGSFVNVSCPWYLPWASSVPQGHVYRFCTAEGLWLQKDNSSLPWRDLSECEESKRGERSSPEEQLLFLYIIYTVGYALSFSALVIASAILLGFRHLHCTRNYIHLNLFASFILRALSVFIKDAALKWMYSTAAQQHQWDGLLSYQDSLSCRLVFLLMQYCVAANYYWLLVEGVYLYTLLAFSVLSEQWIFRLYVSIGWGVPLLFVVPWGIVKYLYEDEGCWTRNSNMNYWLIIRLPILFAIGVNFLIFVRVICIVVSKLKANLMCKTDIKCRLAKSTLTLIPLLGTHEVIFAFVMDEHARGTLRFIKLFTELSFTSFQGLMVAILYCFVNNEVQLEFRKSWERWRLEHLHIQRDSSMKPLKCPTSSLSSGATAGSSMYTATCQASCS

The structures appear in SMILES notation. Where two headings read alike, the source gives them in different places.

Assay [1] deals with T1, human GLP-1 receptor (Homo sapiens, UniProt P43220).
T1 construct: expressed in transfected cells; host or cells: BHK cells, clone FCW467-12A/KZ10-1 (parent line BHKTS13), further transfected with CRE luciferase
Description: GLP-1 receptor binding (SPA, displacement of 125I-GLP-1). How it is done: The purpose of this experiment is to investigate the binding to the GLP-1 receptor of the GLP-1 derivatives, and how the binding is potentially influenced by the presence of albumin. This is done in an in vitro experiment as described below.
In order to test the binding of the derivatives to albumin, the assay was performed with a low concentration of albumin (0.001%—corresponding to the residual amount thereof in the tracer), as well as with a high concentration of albumin (2.0% added). A shift in the binding affinity, IC50, is an indication that the peptide in question binds to albumin, and thereby a prediction of a potential protracted pharmacokinetic profile of the peptide in question in animal models.
Species (in vitro): Hamster
Biological End Point: Receptor Binding
A stable transfected cell line and a high expressing clone were selected for screening. […]
The cells (approx. 80% confluence) were washed twice in PBS and harvested with Versene (aqueous solution of the tetrasodium salt of ethylenediaminetetraacetic acid), following which they were separated by centrifugation at 1000 rpm for 5 min. […] The resulting pellet was resuspended in Buffer 2, and the protein concentration was determined. […]
Test compounds, membranes, SPA-particles and [^125I]-GLP-1(7-36)NH2 were diluted in assay buffer. […] The plates were centrifuged (1500 rpm, 10 min) and counted in Topcounter.
A general note: In a radioligand displacement assay an active substance lowers the binding of a labelled ligand.

The target in assay [2] is T1, human GLP-1 receptor. Description: In vitro potency (CRE luciferase; whole cells). The assay is classed as cell-based. Also on record: EC50/pM (ratio 1% HSA/0% HSA): unit not given here. Particulars: for EC50: BHK cells. Here is the method:
The purpose of this example is to test the activity, or potency, of the GLP-1 derivatives in vitro. The in vitro potency is the measure of human GLP-1 receptor activation in a whole cell assay.
In vitro potency was determined by measuring the response of human GLP-1 receptor in a reporter gene assay. The assay was performed in a stably transfected BHK cell line that expresses the human GLP-1 receptor and contains the DNA for the cAMP response element (CRE) coupled to a promoter and the gene for firefly luciferase (CRE luciferase). When the human GLP-1 receptor was activated it results in the production of cAMP, which in turn results in the luciferase protein being expressed. When assay incubation was completed the luciferase substrate (luciferin) was added and the enzyme converts luciferin to oxyluciferin and produces bioluminescence. The luminescence was measured and was the readout for the assay.
An increase of the in vitro potency, EC50 value, in the presence of serum albumin indicates an affinity to serum albumin and represents a method to predict a protracted pharmacokinetic profile of the test substance in animal models.
The cells were cultured at 5% CO2 in cell culture medium. They were aliquoted and stored in liquid nitrogen. Before each assay an aliquot was taken up and washed twice in PBS before being suspended at the desired concentration in the assay specific buffer.
The following chemicals were used in the assay: Pluronic F-68 (10%) (Gibco 2404), human serum albumin (HSA) (Sigma A9511), ovalbumin (Sigma A5503), DMEM w/o phenol red (Gibco 11880-028), 1 M Hepes (Gibco 15630), Glutamax 100× (Gibco 35050) and steadylite plus (PerkinElmer 6016757).
1) Cell stocks were thawed in a 37° C. water bath. […]
3) The cells were counted and adjusted to 5×10^3 cells/50 μl (1×10^5 cells/ml) in assay medium. […]
4) Stocks of the test compounds and reference compounds were diluted to a concentration of 0.2 μM in 0% assay buffer for the 0% HSA CRE luciferase assay and 1% assay buffer for the HSA CRE luciferase assay. […] 10) Each assay plate was read in a Packard TopCount NXT instrument. […]

The IC50 is the point on the concentration scale where inhibition reaches its midpoint. As usually defined, the EC50 is the concentration needed to bring the measured effect to its halfway point. As to `CC[C@H](C)[C@H](NC(=O)[C@H](Cc1ccccc1)NC(=O)[C@H](CCC(=O)O)NC(=O)[C@H](CCCCNC(=O)[C@@H](N)CCCCNC(=O)[C@@H](N)CCCCNC(=O)CC[C@H](NC(=O)CCCCCCCCCCCCCCC(=O)O)C(=O)O)NC(=O)[C@H](C)NC(=O)[C@H](C)NC(=O)[C@H](CCC(N)=O)NC(=O)CNC(=O)[C@H](CCC(=O)O)NC(=O)[C@H](CC(C)C)NC(=O)[C@H](Cc1ccc(O)cc1)NC(=O)[C@H](CO)NC(=O)[C@H](CO)NC(=O)[C@@H](NC(=O)[C@H](CC(=O)O)NC(=O)[C@H](CO)NC(=O)[C@@H](NC(=O)[C@H](Cc1ccccc1)NC(=O)[C@@H](NC(=O)CNC(=O)[C@H](CCC(=O)O)NC(=O)C(C)(C)NC(=O)[C@@H](N)Cc1c[nH]cn1)[C@@H](C)O)[C@@H](C)O)C(C)C)C(=O)N[C@@H](C)C(=O)N[C@@H](Cc1c[nH]c2ccccc12)C(=O)N[C@@H](CC(C)C)C(=O)N[C@H](C(=O)N[C@@H](CCCNC(=N)N)C(=O)NCC(=O)N[C@@H](CCCNC(=N)N)C(=O)N[C@@H](CCCCNC(=O)[C@@H](N)CCCCNC(=O)[C@@H](N)CCCCNC(=O)CC[C@H](NC(=O)CCCCCCCCCCCCCCC(=O)O)C(=O)O)C(=O)O)C(C)C` [Example 6, N^ε26-[(2S)-2-amino-6-[[(2S)-2-amino-6-[[(4S)-4-carboxy-4-(15-carboxypentadecanoylamino)butanoyl]amino]hexanoyl]amino]hexanoyl], N^ε37-[(2S)-2-amino-6-[[(2S)-2-amino-6-[[(4S)-4-carboxy-4-(15-carboxypentadecanoylamino)butanoyl]amino]hexanoyl]amino]hexanoyl]-[Aib^8,Arg^34,Lys^37]-GLP-1-(7-37)-peptide], the IC50 in assay [1] (0.001% HSA (low albumin), read-out: Receptor binding affinity IC50 (low HSA)) was 0.32 nM; in assay [1] (2.0% HSA (high albumin), read-out: Receptor binding affinity IC50 (high HSA)), not below 1000 nM. Besides, the EC50 in assay [2] (0% HSA, read-out: In vitro potency (CRE luciferase) EC50 (0% HSA)) was 0.0033 nM; in assay [2] (In vitro potency (CRE luciferase) EC50 (1% HSA), 1% HSA), 4.57 nM. In addition, the “EC50/pM (ratio 1% HSA/0% HSA)” value in assay [2] (ratio of EC50 at 1% HSA to EC50 at 0% HSA) stood at 1508.
